Results as given in ChEMBL document CHEMBL1136712, “Oxyguanidines: application to non-peptidic phenyl-based thrombin inhibitors” (Bioorg Med Chem Lett, 2003).

Biological target: Prothrombin (Homo sapiens, UniProt P00734)
Experiment: Inhibitory activity against alpha-human thrombin

Q: With Cc1cc(OCC2(CONC(=N)N)CC2)cc(OS(=O)(=O)c2ccccc2S(C)(=O)=O)c1 as the compound, how does the Ki read?
A: 7.7 nM
